Measured values from US8901177B2, “Method of treating bladder disorders” (Targacept, Inc., priority 2012, dated 2014).

By UniProt entry, the sequences of proteins in these tests, tags left out. Residues count along the entry.
UniProt P30926, 22-498: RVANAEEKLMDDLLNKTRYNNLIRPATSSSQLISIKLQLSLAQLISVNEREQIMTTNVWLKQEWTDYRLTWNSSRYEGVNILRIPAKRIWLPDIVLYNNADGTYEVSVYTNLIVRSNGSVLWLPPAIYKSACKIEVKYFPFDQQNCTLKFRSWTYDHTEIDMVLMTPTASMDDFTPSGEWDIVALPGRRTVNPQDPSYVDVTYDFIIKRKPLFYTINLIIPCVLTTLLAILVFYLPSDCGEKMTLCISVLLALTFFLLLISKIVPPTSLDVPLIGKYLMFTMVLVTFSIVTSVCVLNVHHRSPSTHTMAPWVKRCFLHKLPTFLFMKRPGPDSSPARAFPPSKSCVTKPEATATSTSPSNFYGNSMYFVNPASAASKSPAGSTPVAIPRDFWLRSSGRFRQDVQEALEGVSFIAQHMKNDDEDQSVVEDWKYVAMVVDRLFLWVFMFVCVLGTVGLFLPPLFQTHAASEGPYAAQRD
UniProt P32297, 32-505: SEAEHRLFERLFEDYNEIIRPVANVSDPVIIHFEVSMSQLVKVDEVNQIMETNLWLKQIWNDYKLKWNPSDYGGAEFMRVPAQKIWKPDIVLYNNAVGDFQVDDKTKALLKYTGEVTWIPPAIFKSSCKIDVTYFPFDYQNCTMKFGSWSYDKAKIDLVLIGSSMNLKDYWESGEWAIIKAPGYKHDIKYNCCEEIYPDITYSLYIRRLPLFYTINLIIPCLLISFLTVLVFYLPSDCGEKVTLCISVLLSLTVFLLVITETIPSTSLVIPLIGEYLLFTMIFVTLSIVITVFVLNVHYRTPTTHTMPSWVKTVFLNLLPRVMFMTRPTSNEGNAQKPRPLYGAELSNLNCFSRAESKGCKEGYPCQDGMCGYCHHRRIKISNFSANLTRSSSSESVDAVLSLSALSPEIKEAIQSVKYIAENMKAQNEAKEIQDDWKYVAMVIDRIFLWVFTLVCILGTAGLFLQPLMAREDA

Molecular target: T1, human α3β4 channels (Homo sapiens, UniProt P30926+P32297)
T1 construct: host or cells: CHO cells
Assay: Use-dependent inhibition of human α3β4 channels expressed in CHO cells (Dynaflow electrophysiology)
Type: cell-based
Details: 30 nM compound + 30 μM ACh, first co-application; control = 100; SEM and n in next columns
Method: There was an assumption that the dependence on the number of co-applications would be the most relevant to clinical concentrations, since upon the time of exposure in vivo, the number of open channels could reach substantial numbers; perhaps due to channel spontaneous opening, flickering, and endogenous transmitter release as a result of brain activity. All experiments were performed using a conventional Dynaflow (Cellectricon Inc.) electrophysiological system. Dynaflow settings: To achieve continuous exposure to the drug we used following Dynaflow chip loading. An example of standard chip loading for use-dependent experiments with example for 30 μM ACh and 0.1 μM of TC-05231 (racemic mecamylamine). For the following experiments, ACh always consisted of 30 μM and concentrations of compounds were, 0.03, 0.1, 0.3 and 1.0 (μM). FIG. 13 illustrates the settings.
Applications were performed by positioning the cell in front of channel #1 for 1 second, followed by channel #3, then back to channel #1 by rapidly moving the Dynaflow chip, which consisted of both the laminar flow from the channels and the entire bath solution. […]

In the case of `CNC1(C)C2CCC(C2)C1(C)C.Cl` (racemic) [TC-5231, N,2,3,3-tetramethylbicyclo[2.2.1]heptan-2-amine hydrochloride], the “peak current normalized to 10th ACh application (positive modulation, FIG. 16)” value is reported as 99.29.
